Assay results: patent publication US11331310B2, “Method of treating cocaine addiction” (MyMD Pharmaceuticals (Florida), Inc., priority 2015, dated 2022)

Protein sequences, listed by entry. Tags and fused reporters are not part of them.
UniProt P21397, whole entry, species assumed: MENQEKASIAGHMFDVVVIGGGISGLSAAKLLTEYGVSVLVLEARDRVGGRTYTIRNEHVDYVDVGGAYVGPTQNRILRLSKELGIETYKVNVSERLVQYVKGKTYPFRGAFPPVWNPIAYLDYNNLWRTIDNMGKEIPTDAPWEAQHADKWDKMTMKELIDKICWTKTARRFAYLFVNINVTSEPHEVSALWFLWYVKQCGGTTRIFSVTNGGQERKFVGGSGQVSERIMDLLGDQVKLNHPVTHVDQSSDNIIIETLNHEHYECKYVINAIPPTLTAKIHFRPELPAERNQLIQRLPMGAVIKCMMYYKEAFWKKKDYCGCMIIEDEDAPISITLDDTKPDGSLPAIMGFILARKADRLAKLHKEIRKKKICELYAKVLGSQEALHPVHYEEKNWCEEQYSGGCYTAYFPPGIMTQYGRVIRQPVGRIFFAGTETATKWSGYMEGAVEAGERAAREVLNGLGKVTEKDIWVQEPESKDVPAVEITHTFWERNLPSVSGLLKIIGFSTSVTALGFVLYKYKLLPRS

Target: T1, MAO-A (Homo sapiens, UniProt P21397)
T1 construct: purchased
Test: MAO-Glo luminescent assay, MAO-A inhibition
Type: biochemical
Settings: 1 hour at room temperature; compared among five alkaloids
Source text: This example describes experiments for determining monoamine oxidase (MAO) inhibition for isomyosmine and other alkaloids. MAOs are enzymes located on the outer membrane of mitochondria and are involved in the catabolism of monoamine neurotransmitters. There are two well-characterized isoenzymes: MAO-A, which predominantly catabolizes serotonin and norepinephrine, and MAO-B, which preferentially catabolizes benzylamine and phenylethylamine. Dopamine and tyramine are metabolized by both isoforms.
To detect the activity of MAO, a luminescent method (MAO-Glo Assay kit, from Promega, Cat #V1401) was used. In this method, a MAO substrate (a derivative of beetle luciferin provided in the kit) is mixed with the compound to be tested (in this case, myosmine and control compounds). Then, the MAO enzymes (either A or B, purchased separately) are added to the mixture and incubated with the reaction for 1 hour at room temperature. The MAO enzymes, if not inhibited by the test compound, will convert the substrate into methyl ester luciferin. Finally, a luciferin detection reagent (provided by the kit) is added (20 minutes at room temperature) to stop the MAO reaction and convert methyl ester luciferin into D-luciferin. […] The luminescent signal is measured and recorded using a luminometer. […]

## C#CCN(C)CCCOc1ccc(Cl)cc1Cl [clorgyline]
  inhibition of the enzymatic activity of MAO-A (in words, curve position in FIG. 1): greatly shifted leftward
